{
  "source": "the supplement of paper PMC12532568",
  "note": "Structures can show the parent of a compound that is named as a salt. The list shows a part of the results, in another mix than the full data.",
  "data": [
    {"test_system": "Danio rerio larvae Tg(actc1b:ZsGreen-LC3), 3 dpf", "assay": "LC3 puncta relative area vs vehicle, without NH4Cl (log2 fold change); higher = more autophagosomes", "conditions": "10 µM; treatment time 16 h; NH4Cl: none", "procedure": "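Transgenic Tg(actc1b:ZsGreen-map1lc3) zebrafish larvae (2 dpf) were treated for 16 h with Tocris library compounds at 10 µM (n = 12 larvae per compound). Skeletal-muscle LC3 puncta area relative to body area was measured by high-content confocal imaging before and after 4 h of 100 mM NH4Cl (autophagic flux), normalised to vehicle (DMSO), and reported as log2 fold change.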", "values": [
      {"molecule": "N/C(=N/CCc1ccc(I)cc1)SCCCc1cnc[nH]1", "note": "[Iodophenpropit dihydrobromide]", "LC3 puncta (log2)": 0.402}
    ]}
  ]
}
